The test system of experiment [1] is Alpha-1 adrenergic receptors from rat brain cortex. The experiment is described as follows: [3H]Prazosin binding to alpha-1 adrenergic receptors from rat brain cortex (Protocol 4). The conditions noted are these: Inh @ 1 μM. The source says: [^3H]Prazosin Binding to Alpha-1 Adrenergic Receptors from Rat Brain Cortex
Objective: This in vitro assay is designed as a screen to identify compounds displaying a affinity for the a, adrenoceptor subtype in membranes from rat cortex. It measures the ability of the test compounds to displace [^3H]prazosin from the α1 sites.
Membrane Preparation: Rat brain tissue can be obtained from either fresh (male Wistar rats; 200-250 g) or frozen (male Sprague-Dawley 200-250 g from Harlan; cat. #BT-403) stocks. The cortex is dissected, homogenized in 50 vol (wet weight) ice-cold 50 mM Tris buffer (pH 7.7 at 25° C.). The homogenate is centrifuged at 48,000 g for 10 min, the pellet is resuspended in 50 mM Tris buffer and centrifuged a second time. The second pellet (P2) is resuspended to yield a concentration of 115 mg wet weight per 10 ml. […] Membranes should be mixed just before addition to ensure an even suspension. […] Total binding and nonspecific binding are determined in quadruplicate. […] Note: The radioactivity should be prepared just before the additions are made so that it is not allowed to sit on the bench for very long. • Packard GF/B Plate Pretreatment: The filter plates are presoaked for at least 30 min in ice cold Buffer B containing 0.05% polyethyleneimine (200 μl/200 ml) to maximize filtration efficiency and minimize filter blank binding. • Incubation & Filtration: Once buffer, compounds, [^3H]prazosin and membrane have been added (and mixed), the 96 well plates are incubated for 40 min at 37° C. and spaced 3-5 min apart. […] Using Packard film, each plate is heat sealed prior to being counted in a Packard Topcount Scintillation counter. […]

The chains behind the UniProt entries cited, without tags or fusion partners.
UniProt P35348, whole entry: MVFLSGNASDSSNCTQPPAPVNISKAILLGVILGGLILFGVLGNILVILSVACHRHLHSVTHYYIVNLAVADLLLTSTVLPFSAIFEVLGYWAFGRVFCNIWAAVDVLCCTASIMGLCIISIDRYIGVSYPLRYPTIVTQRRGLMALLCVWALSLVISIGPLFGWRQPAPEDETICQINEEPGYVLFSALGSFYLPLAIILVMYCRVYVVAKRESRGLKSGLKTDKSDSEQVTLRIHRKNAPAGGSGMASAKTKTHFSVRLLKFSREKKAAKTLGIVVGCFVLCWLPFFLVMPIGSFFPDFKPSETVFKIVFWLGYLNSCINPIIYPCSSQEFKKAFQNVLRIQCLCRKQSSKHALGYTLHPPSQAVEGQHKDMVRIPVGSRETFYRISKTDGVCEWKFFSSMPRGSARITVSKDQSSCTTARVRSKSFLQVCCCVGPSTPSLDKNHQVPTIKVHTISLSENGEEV
UniProt P35462, whole entry: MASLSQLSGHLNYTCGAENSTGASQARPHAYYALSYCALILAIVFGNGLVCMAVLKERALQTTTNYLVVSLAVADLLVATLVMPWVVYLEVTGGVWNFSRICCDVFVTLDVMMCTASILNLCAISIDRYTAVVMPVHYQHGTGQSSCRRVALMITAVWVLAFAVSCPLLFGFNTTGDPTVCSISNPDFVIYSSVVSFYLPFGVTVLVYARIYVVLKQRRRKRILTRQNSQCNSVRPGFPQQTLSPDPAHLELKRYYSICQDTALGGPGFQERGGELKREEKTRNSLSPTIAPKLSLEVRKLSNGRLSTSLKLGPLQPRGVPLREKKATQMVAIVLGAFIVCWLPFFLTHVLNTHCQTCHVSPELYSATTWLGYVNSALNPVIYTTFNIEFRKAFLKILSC

Experiment [2] concerns the target cloned human alpha-1A adrenergic receptors (α1a) (Homo sapiens, UniProt P35348). Kind of experiment: [3H]Prazosin binding to cloned human alpha-1A adrenergic receptors expressed in CHO cells. The conditions noted are these: read-out: h-α1 Ki, piperazines (n = 1) vs homopiperazines (n = 2). The source says: ^3H]PRAZOSIN BINDING TO CLONED HUMAN ALPHA-1A ADRENERGIC RECEPTORS (α1a) EXPRESSED IN CHINESE HAMSTER OVARY CELLS (CHO)
Purpose: This in vitro assay is designed as a screen to identify compounds displaying a affinity for the human α1a adrenoceptor subtype expressed in the membrane fragments of CHO cells. The assay measures the ability of the test compounds to displace [^3H] prazosin from α1a sites. • The identification of multiple vascular α1-addrenoceptors (α1a, α1b, α1d) in vitro has provided impetus to define the role(s) of these subtypes in cardiovascular regulation in vivo (Vargas and Gorman, 1995). […] Prazosin is a potent antagonist of the human α1a-adrenoceptor subtype, which has been cloned and is expressed in the membrane fragments of CHO cells. hα1a Receptor: The cloning of the human α1a cDNA was accomplished first by screening a human prostate cDNA library (Clontech), from which a portion of the coding region was obtained. This DNA fragment was then used to screen a human leukocyte genomic library (Clontech), and the rest of the coding sequence was obtained. Later these two fragments were spliced together. The entire coding sequence was then fully sequenced including matching PCR sequence with original genomic coding sequence, thus ensuring splice sites were joined correctly (Schwinn et al., 1995). Once sequenced, the gene was subcloned into the expression vector pcDNA3 (Invitrogen). Plasmid DNA was then used for transfection into CHO cells and G418 resistant clones were isolated. A clone expressing high levels of the hα1a receptor (as determined by mRNA and receptor binding data) was chosen and pharmacologically characterized. Culture Media: Media Ingredients for Adherent α1a expressing CHO Culture: • A. HAM's F-12 (Cellgro) • B. 10% 0.2 micron filtered Fetal Bovine Serum (FBS)(Cellgro) • C. 1% 0.2 micron filtered Penicillin-Streptomycin (Celigro) • D. G418 0.2 micron filtered (Geneticin 400 μg/ml)(Cellgro) • Cells are cultured using established methods and procedures in either 150×25 mm culture plates (scale up to 100 plates) or a combination of these plates and 70 roller bottles. One culturing/harvest cycle typically requires 2 weeks and yields between 100-400 mg protein. Plates or bottles are incubated at 37° C.+5% CO2. Storage: Cells are harvested by mechanical scraping, washed using PBS, collected in 250 ml Corning polypropylene centrifuge tubes, spun down (1500RPM) and resuspended in dH2O 10% DMSO (final volume per harvest is approximately 50 ml). Protein determination is made using the Biorad DC Assay Kit. […]
Assay Requirement: 0.5 cryovials per 96 well plate (assay volume=200 μl/well) [^3H]-Ligand: [7-methoxy-^3H]-Prazosin: 1.0 nM (NEN, NET-823) • 70-87 Ci/mmol Materials: Phentolamine mesylate (Research Biochemicals Int. #P-131) • 96 well flat bottom plates (Beckman) • Unifilter GF/B Plate (Packard) • Polyethylenimine (Sigma #P-3134) • TomTec or Packard Filtermate 196 Cell Harvesters • Packard TopCount Scintillation Counter Buffers: A: 50 mM Tris HCl; 0.1% ascorbate, pH 7.7 (incubation buffer) • B: 50 mM Tris HCl; pH 7.7 (wash buffer) Procedure: Assay additions are as follows (in the order indicated): • Total Binding=50 μl buffer A+50 μl [^3H]prazosin+100 μl membrane • Nonsp. Bd.=50 μl 10 μM phentolamine+50 μl [^3H]prazosin+100 μl membrane • Test Cpd.=50 μl compound+50 μl [^3H]prazosin+100 μl membrane • Compounds to be evaluated are weighed out to yield a 10 mM stock solution in DMSO in a 24 well polystyrene plate. […]

The target in experiment [3] is cloned human dopamine D3 receptors (Homo sapiens, UniProt P35462). Kind of experiment: [N-Methyl-3H]Spiroperidol binding to cloned human dopamine D3 receptors (Protocol 1). The following applies: read-out: D3K1; Table 2. The source says:
[N-Methyl-^3H]Spiroperidol Binding to Cloned Human Dopamine D3 Receptors
This assay measures the in vitro activity of compounds on cloned human dopamine (D3) receptors and predicts the direct dopamine-blocking properties of putative neuropsychiatric agents at human dopamine D3 receptors.
The D3 gene was isolated from a human striatal cDNA library (Stratagene). The gene was sequenced and sub-cloned into the expression vector RC/RSV (Invitrogen). CHO (Chinese Hamster Ovary) cells were stably transfected with 10 μg of the D3/RSV plasmid using the DOTAP method from Boehringer Mannheim and 72 clones that were G418 resistant were isolated. Using mRNA and binding displacement data a single high expressing clone was identified. This clone was then grown in large batches for the purpose of developing a 96 well format assay.
• 1. One plate (10 cm) with approximately 2-3 million D3 cells per plate is incubated with 1 ml of Trypsin-EDTA at room temperature for ˜2 min or until cells have lifted off plates. Four ml of Ham's F12+10% Fetal Bovine Serum+1% Penicillin/Streptomycin+G418 (400 μg/ml) medium are added to resuspend cells and 1 ml of this is added to each large plate (15 cm) containing 19 ml of the-same medium as mentioned above. • 2. The 5 large plates are incubated at 37° C.+5% CO2 for ˜3 days or until the cells are confluent. • 3. After these plates are confluent, they are split into 10 large plates. Medium is aspirated off, 2 ml of Trypsin-EDTA are added to each plate and plates are incubated at RT for 2 min or until cells have lifted off the plate. Eight ml of the F12 medium (same medium as #1 above) are added to each plate (10 ml total) to resuspend the cells and 5 ml are transferred to the 2 new plates containing 15 ml of the F12 media. • 4. The 10 large plates are incubated at 37° C.+5% CO2 for ˜2 days or until the cells are confluent. • 5. The 10 large plates are split into 60 large plates (using Trypsin-EDTA as #3 except 4 ml of F12 medium are added to resuspend cells and 1 ml is aliquoted to 6 new plates containing 19 ml of F12 medium each). • 6. Plates are incubated at […]+5% CO2 for ˜3 days or until cell are confluent. • 7. The 60 large plates are then split into 60 roller bottles (100-150 million cells/bottle). Medium is aspirated off, 2 ml of Trypsin-EDTA are added to each plate and incubated at RT for ˜2 minutes or until cells have lifted off plates. Eight ml of F12 medium are added to each plate to resuspend cells and the entire 10 ml are added to 1 roller bottle containing 90 ml of the F12 medium. • 8. The 60 roller bottles are immediately placed on their sides and transferred to the roller bottle incubator. They are incubated at 37° C.+5% CO2 for ˜3-5 days. Cells are spun at 30-40% motor speed in the Forma incubator. • 9. Medium is poured off and cells are washed 2× in PBS. • 10. Cells are then scraped off in 20 ml of PBS and the bottles are rinsed again with 5 ml of PBS to remove any remaining cells. Cells are stored on ice before membrane preparation. • 11. The yield for 60 D3 roller bottles has varied from ˜260-500 mg. • Note: All tissue culture reagents are from Gibco-BRL. C. Membrane Preparation
The cells are harvested into 250 ml centrifuge tubes with 100 volumes of cold phosphate buffered saline (PBS) and spun down (1200×G for 10 min at 4° C.). The medium is removed and 100 ml PBS are added to each centrifuge tube, cells are resuspend and spun down again. The PBS is removed and the final pellet is homogenized in an appropriate volume of 10% DMSO with a polytron on ice at a medium setting.
1. 0.5M Tris Buffer, pH 7.7 • a) 44.4 g Tris HCl 26.5 g Tris Base q.s. to 1 Liter (0.5 M Tris buffer, pH 7.7 at 37° C.) • b) make a 1:10 dilution in distilled H2O (0.05 M. Tris buffer, pH 7.7) 2. Tris Buffer Containing Physiological Salts • a) Stock buffer • NaCl 7.014 g • KCl 0.372 g • CaCl2 0.222 g • MgCl2 0.204 g • q.s. To 100 ml with 0.5 M. Tris Buffer • b) Dilute 1:10 in distilled H2O […]

Each structure is given as a SMILES string.

As to `O=C(NCCCCN1CCCN(c2csc3cc(F)ccc23)CC1)c1ccc2[nH]ccc2c1` [S977824], in experiment [1], the “r-α1 % Inh” value amounted to 47%. The Ki in experiment [2] was found to be 53.4 nM. With `O=C(NCCCCN1CCCN(c2csc3cc(F)ccc23)CC1)c1cc2ccccc2[nH]1` [S977818], in experiment [1], the “r-α1 % Inh” value came out at 0%. In addition, the Ki in experiment [2] is 598 nM.

In the case of `O=C(NCCCCN1CCCN(c2csc3cc(F)ccc23)CC1)c1c[nH]c2ccccc12` [S977822], the “r-α1 % Inh” value in experiment [1] stood at 34%. The Ki in experiment [2] is 111 nM. Take `COc1cccc(CC(=O)NCCCCN2CCCN(c3csc4cc(F)ccc34)CC2)c1` [S982510]: the Ki in experiment [2] was determined as 35 nM. For the molecule `O=C(NCCCCN1CCCN(c2csc3cc(F)ccc23)CC1)c1ccc(C(F)(F)F)cc1` [S9818147], the Ki in experiment [2] was determined as 136 nM. For `O=C(NCCC(CO)CN1CCN(c2csc3cc(C(F)(F)F)ccc23)CC1)c1cc2ccccc2[nH]1` (stereo not shown), the Ki in experiment [3] was 76.6 nM.

For `O=C(NCCC(CO)CN1CCN(c2csc3cc(C(F)(F)F)ccc23)CC1)c1cccc(C(=O)c2ccccc2)c1` (stereo not shown), the Ki in experiment [3] was 314 nM.
